In this assay the target is D(1A) dopamine receptor (Homo sapiens) (UniProt P21728). Briefly: Positive allosteric modulation of D1R expressed in human SK-N-MC cells assessed as potentiation of DA-induced cAMP production pretreated with compound for 15 mins followed by dopamine addition measured after 15 mins by HTRF assay relative to control. Type of assay: functional, cell-based. As to conditions: filed as positive allosteric modulator, dose 0.1-10 µM, time 30.0 min. The essentials: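 Human SK-N-MC neuroblastoma cells with endogenous D1R, seeded at 1×10^4 cells/well in Opti-MEM with 500 μM IBMX. Preincubated with 10 μM compound for 15 min at 25 °C, then dopamine concentration–response for 15 min at 25 °C. Lysed and cAMP read by HTRF. Change in dopamine Emax used; >20% potentiation taken as a potential PAM.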
(cAMP levels reflect the balance of adenylyl cyclase and phosphodiesterase activity.)

By UniProt entry, the sequences of proteins in these tests, tags left out.
UniProt P21728, whole entry: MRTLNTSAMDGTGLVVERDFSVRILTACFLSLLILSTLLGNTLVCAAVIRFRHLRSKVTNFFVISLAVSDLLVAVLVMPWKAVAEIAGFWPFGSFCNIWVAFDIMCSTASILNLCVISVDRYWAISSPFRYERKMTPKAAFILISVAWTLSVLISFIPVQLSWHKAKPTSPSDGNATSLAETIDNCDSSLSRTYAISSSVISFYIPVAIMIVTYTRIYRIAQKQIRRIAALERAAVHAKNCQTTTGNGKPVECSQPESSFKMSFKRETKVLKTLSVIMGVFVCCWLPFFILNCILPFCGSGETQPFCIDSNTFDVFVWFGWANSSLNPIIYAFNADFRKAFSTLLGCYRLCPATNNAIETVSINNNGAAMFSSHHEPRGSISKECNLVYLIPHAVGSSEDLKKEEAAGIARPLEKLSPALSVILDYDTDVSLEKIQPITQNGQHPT

For one compound, Emax results are on record in ChEMBL document CHEMBL5113516, “2-(Fluoromethoxy)-4'-(S-methanesulfonimidoyl)-1,1'-biphenyl (UCM-1306), an Orally Bioavailable Positive Allosteric Modulator of the Human Dopamine D1 Receptor for Parkinson's Disease” (J Med Chem, 2022).

One may read the Emax as the greatest response seen or fitted, relative to the assay's reference.

In the case of `O=Cc1ccc(-c2ccccc2OCF)cc1`, the Emax turned out to be 82%.
